From patent US6429204B1, “Method of inhibiting cancer growth” (University of Miami, priority 1997, dated 2002)

Assays:
COLO 205 Cells = assay: MTS cytotoxicity assay, COLO 205; conditions: two days
E-10 Cells = assay: MTS cytotoxicity assay, E-10; conditions: two days

Measured: percent cytotoxicity

tetracycline pyrazole [CMT-5]
0%: COLO 205 Cells; 5 μM | COLO 205 Cells; 10 μM | COLO 205 Cells; 20 μM | COLO 205 Cells; 50 μM | COLO 205 Cells; 100 μM | E-10 Cells; 5 μM | E-10 Cells; 10 μM | E-10 Cells; 20 μM | E-10 Cells; 50 μM | E-10 Cells; 100 μM
